Experimental data published in US6906170B1, “Anti-inflammatory peptides derived from IL-2 and analogues thereof” (Yeda Research and Development Co. Ltd., priority 1998, dated 2005).

Assays:
[1] = system: human T cells; test: Induction of T cell adhesion to ECM, FN, LN and CO-IV; format: cell-based; details: soluble IL-2, 30 min at 37° C.
Protocol: FIGS. 1A-1B show induction of T cell adhesion to fibronectin (FN), laminin (LN), collagen type IV (CO-IV) (FIG. 1A) and ECM (FIG. 1B) by IL-2. [^51Cr]-Labeled human T cells were seeded onto FN-, LN, CO-IV, and ECM-coated microtiter wells together with IL-2. After 30 min at 37° C., non-adherent T cells were removed, the adherent cells were lysed, and the percentage of T cells that had adhered was determined. One experiment representative of four.
T cell adhesion assays. Human T cells were purified from the peripheral blood of healthy donors, and T cell adhesion to immobilized protein substrates was examined as follows: Human leukocytes were isolated on a Ficoll gradient, washed, and incubated (2 h, 37° C., 7.5% CO2, humidified atmosphere) on petri dishes. The non-adherent cells were then collected and incubated (1 h, 37° C., 7.5% CO2, humidified atmosphere) on nylon wool columns (Novamed Ltd., Jerusalem, Israel). Unbound cells were eluted from the columns by extensive washings. The resulting cell population was always >92% T cells. […] The adherent cells were lysed, and the resulting supernatants were removed and analyzed in a γ-counter. For each experimental group, the results were expressed as the mean percentage ±SD of bound T cells from quadruplicate wells. […]

[2] = system: β1 integrins; test: T cell surface expression of β1 integrins; format: cell-based, human; details: not shown

Substance: IL-2: Recombinant human IL-2 (Chiron B. V.)
- induction of T cell adhesion to ECM and ECM glycoproteins [1]: induced T cell adhesion to FN, LN, and CO-IV
- T cell surface expression of β1 integrins [2]: did not alter the T cell surface expression of β1 integrins
